# Assay results as given in US10189836B2, “Therapeutic compounds, compositions and methods of use thereof” (Genentech, Inc., priority 2015, dated 2019).
# Test system: JAK1-dependent STAT6 phosphorylation downstream of IL-13 stimulation in BEAS-2B cells
row,SMILES,IC50 [nM]
1,"CN1CCN(C(=O)Cn2cc(Nc3nc4c(N5CC6CCC(C5)N6C(=O)CC(N)C(F)(F)F)cccn4n3)cn2)CC1 (stereo not drawn) [Example 102, 3-amino-4,4,4-trifluoro-1-[3-[2-[[1-[2-(4-methylpiperazin-1-yl)-2-oxo-ethyl]pyrazol-4-yl]amino]-[1,2,4]triazolo[1,5-a]pyridin-8-yl]-3,8-diazabicyclo[3.2.1]octan-8-yl]butan-1-one]",420
2,"CN1CCN(C(=O)Cn2cc(Nc3nc4c(N5CC6CCC(C5)N6C(=O)C5(C(F)(F)F)CC5)cccn4n3)cn2)CC1 [Example 38, 1-(4-methylpiperazin-1-yl)-2-[4-[[8-[8-[1-(trifluoromethyl)cyclopropanecarbonyl]-3,8-diazabicyclo[3.2.1]octan-3-yl]-[1,2,4]triazolo[1,5-a]pyridin-2-yl]amino]pyrazol-1-yl]ethanone]",52.5
3,"CSc1ccc(S(=O)(=O)N2C3CCC2CN(c2cccn4nc(Nc5cnn(CC(=O)N6CCN(C)CC6)c5)nc24)C3)cc1 [Example 107, 1-(4-methylpiperazin-1-yl)-2-[4-[[8-[8-(4-methylsulfanylphenyl)-sulfonyl-3,8-diazabicyclo[3.2.1]octan-3-yl]-[1,2,4]triazolo[1,5-a]pyridin-2-yl]amino]pyrazol-1-yl]ethanone]",27.4
4,O=C(Cn1cc(Nc2nc3c(N4CC5CCC(C4)N5C(=O)[C@H]4C[C@@H](C(F)(F)F)C4)cccn3n2)cn1)N1CCN(C2CSC2)CC1 [Example 82],38.6
5,"CN1CCN(C(=O)Cn2cc(Nc3nc4c(N5CC6CCC(C5)N6S(=O)(=O)Cc5ccc(F)cc5)cccn4n3)cn2)CC1 [Example 160, 2-[4-[[8-[8-[(4-fluorophenyl)methylsulfonyl]-3,8-diazabicyclo[3.2.1]octan-3-yl]-[1,2,4]triazolo[1,5-a]pyridin-2-yl]amino]pyrazol-1-yl]-1-(4-methylpiperazin-1-yl)ethanone]",28.5
6,"CN1CCN(C(=O)Cn2cc(Nc3nc4c(N5CC6CCC(C5)N6C(=O)Cc5ccccc5F)cccn4n3)cn2)CC1 [Example 64, 2-(2-fluorophenyl)-1-[3-[2-[[1-[2-(4-methylpiperazin-1-yl)-2-oxo-ethyl]pyrazol-4-yl]amino]-[1,2,4]triazolo[1,5-a]pyridin-8-yl]-3,8-diazabicyclo[3.2.1]octan-8-yl]ethanone]",53.4
7,"CN1CCN(C(=O)Cn2cc(Nc3nc4c(N5CC6CCC(C5)N6S(=O)(=O)Cc5ccc(C#N)cc5)cccn4n3)cn2)CC1 [Example 168, 4-[[3-[2-[[1-[2-(4-methylpiperazin-1-yl)-2-oxo-ethyl]pyrazo1-4-yl]amino]-[1,2,4]triazolo[1,5-a]pyridin-8-yl]-3,8-diazabicyclo[3.2.1]octan-8-yl]sulfonylmethyl]-benzonitrile]",226
8,"CN1CCN(C(=O)Cn2cc(Nc3nc4c(N5C[C@H]6CC[C@@H](C5)[C@H]6OCc5ccccc5C#N)cccn4n3)cn2)CC1 [Example 142, 2-[[rac-(1S,5R)-3-[2-[[1-[2-(4-methylpiperazin-1-yl)-2-oxo-ethyl]pyrazol-4-yl]amino]-[1,2,4]triazolo[1,5-a]pyridin-8-yl]-3-azabicyclo[3.2.1]octan-8-yl]oxymethyl]benzonitrile]",35.4
9,"CN1CCN(C(=O)Cn2cc(Nc3nc4c(N5CC6CCC(C5)N6C(=O)Cc5ccncc5)cccn4n3)cn2)CC1 [Example 42, 1-[3-[2-[[1-[2-(4-methylpiperazin-1-yl)-2-oxo-ethyl]pyrazol-4-yl]amino]-[1,2,4]triazolo[1,5-a]pyridin-8-yl]-3,8-diazabicyclo[3.2.1]octan-pyridyl)ethanone]",232
10,"CN1CCN(C(=O)Cn2cc(Nc3nc4c(N5CC6CCC(C5)N6C(=O)Cc5ccc(F)cc5)cccn4n3)cn2)CC1 [Example 66, 2-(4-fluorophenyl)-1-[3-[2-[[1-[2-(4-methylpiperazin-1-yl)-2-oxo-ethyl]pyrazol-4-yl]amino]-[1,2,4]triazolo[1,5-a]pyridin-8-yl]-3,8-diazabicyclo[3.2.1]octan-8-yl]ethanone]",32.3
11,"CN1CCN(C(=O)Cn2cc(Nc3nc4c(N5C[C@H]6CC[C@@H](C5)[C@H]6OCc5cccc(C#N)c5)cccn4n3)cn2)CC1 [Example 129, 3-[[(1S,5R)-3-[2-[[1-[2-(4-methylpiperazin-1-yl)-2-oxo-ethyl]pyrazol-4-yl]amino]-[1,2,4]triazolo[1,5-a]pyridin-8-yl]-3-azabicyclo[3.2.1]octan-8-yl]oxymethyl]benzonitrile]",31.5
12,"CC(C)(C#N)CNC1CCN(C(=O)Cn2cc(Nc3nc4c(N5CC6CCC(C5)N6C(=O)N5CC(C(F)(F)F)C5)cccn4n3)cn2)CC1 [Example 131, 2,2-dimethyl-3-[[1-[2-[4-[[8-[8-[3-(trifluoromethyl)azetidine-1-carbonyl]-3,8-diazabicyclo[3.2.1]octan-3-yl]-[1,2,4]triazolo[1,5-a]pyridin-2-yl]amino]pyrazol-1-yl]acetyl]-4-piperidyl]amino]-propanenitrile]",47.9
13,"CSCCN1CCN(C(=O)Cn2cc(Nc3nc4c(N5CC6CCC(C5)N6C(=O)C5CC(C(F)(F)F)C5)cccn4n3)cn2)CC1 (stereo not drawn) [Example 198, 1-[4-(2-methylsulfanylethyl)-piperazin-1-yl]-2-[4-[[8-[8-[3-(trifluoromethyl)-cyclobutanecarbonyl]-3,8-diazabicyclo[3.2.1]octan-3-yl]-[1,2,4]triazolo[1,5-a]pyridin-2-yl]amino]pyrazol-1-yl]ethanone]",33.4
14,"CN1CCN(C(=O)Cn2cc(Nc3nc4c(N5CC6CCC(C5)N6S(=O)(=O)c5ccc(C(F)(F)F)cc5)cccn4n3)cn2)CC1 [Example 135, 1-(4-methylpiperazin-1-yl)-2-[4-[[8-[8-(4-(trifluoromethyl)phenyl]sulfonyl-3,8-diazabicyclo[3.2.1]octan-3-yl]-[1,2,4]triazolo[1,5-a]pyridin-2-yl]amino]pyrazol-1-yl]ethanone]",14.7
15,"CN1CCN(C(=O)Cn2cc(Nc3nc4c(N5CC6CCC(C5)N6C(=O)C(C)(C)CC(F)(F)F)cccn4n3)cn2)CC1 [Example 71, 4,4,4-trifluoro-2,2-dimethyl-1-[3-[2-[[1-[2-(4-methylpiperazin-1-yl)-2-oxo-ethyl]pyrazol-4-yl]amino]-[1,2,4]triazolo[1,5-a]pyridin-8-yl]-3,8-diazabicyclo[3.2.1]octan-8-yl]butan-1-one]",44
16,"CN1CCN(C(=O)Cn2cc(Nc3nc4c(N5CC6CCC(C5)N6S(=O)(=O)c5ccc(C#N)cc5)cccn4n3)cn2)CC1 [Example 149, 4-[3-[2-([1-[2-(4-methylpiperazin-1-yl)-2-oxoethyl]-1H-pyrazol-4-yl]amino)-[1,2,4]triazolo[1,5-a]pyridin-8-yl]-3,8-diazabicyclo[3.2.1]octane-8-sulfonyl]benzonitrile]",34.5
17,"CN1CCN(C(=O)Cn2cc(Nc3nc4c(N5C[C@H]6CC[C@@H](C5)[C@H]6OCc5ccc(C#N)cc5)cccn4n3)cn2)CC1 [Example 128, 4-[[(1S,5R)-3-[2-[[1-[2-(4-methylpiperazin-1-yl)-2-oxo-ethyl]pyrazol-4-yl]amino]-[1,2,4]triazolo[1,5-a]pyridin-8-yl]-3-azabicyclo[3.2.1]octan-8-yl]oxymethyl]benzonitrile]",20.6
18,"CC(CC(=O)N1C2CCC1CN(c1cccn3nc(Nc4cnn(CC(=O)N5CCN(C)CC5)c4)nc13)C2)C(F)(F)F (stereo not drawn) [Example 67, 4,4,4-trifluoro-3-methyl-1-[3-[2-[[1-[2-(4-methylpiperazin-1-yl)-2-oxo-ethyl]pyrazol-4-yl]amino]-[1,2,4]triazolo[1,5-a]pyridin-8-yl]-3,8-diazabicyclo[3.2.1]octan-8-yl]butan-1-one]",40.9
19,"CN1CCN(C(=O)Cn2cc(Nc3nc4c(C5=CC6CCC(C5)N6C(=O)CCC(F)(F)F)cccn4n3)cn2)CC1 (stereo not drawn) [Example 13, 4,4,4-trifluoro-1-[3-[2-[[1-[2-(4-methylpiperazin-1-yl)-2-oxo-ethyl]pyrazol-4-yl]amino]-[1,2,4]triazolo[1,5-a]pyridin-8-yl]-8-azabicyclo[3.2.1]oct-3-en-8-yl]butan-1-one]",21.4
20,"CN1CCN(C(=O)Cn2cc(Nc3nc4c(N5CC6CCC(C5)N6C(=O)c5ccccc5C#N)cccn4n3)cn2)CC1 [Example 140, 2-[3-[2-[[1-[2-(4-methylpiperazin-1-yl)-2-oxo-ethyl]pyrazol-4-yl]amino]-[1,2,4]triazolo[1,5-a]pyridin-8-yl]-3,8-diazabicyclo[3.2.1]octane-8-carbonyl]benzonitrile]",24.6
21,"CN1CCN(C(=O)Cn2cc(Nc3nc4c(N5CC6CCC(C5)N6C(=O)COC(F)(F)F)cccn4n3)cn2)CC1 [Example 54, 1-(4-methylpiperazin-1-yl)-2-[4-[[8-[8-[2-(trifluoromethoxy)acetyl]-3,8-diazabicyclo[3.2.1]octan-3-yl]-[1,2,4]triazolo[1,5-a]pyridin-2-yl]amino]pyrazol-1-yl]ethanone]",55.7
22,"CN1CCN(C(=O)Cn2cc(Nc3nc4c(N5CC6CCC(C5)N6S(=O)(=O)c5cccnc5)cccn4n3)cn2)CC1 [Example 175, 1-(4-methylpiperazin-1-yl)-2-[4-[[8-[8-(3-pyridylsulfonyl)-3,8-diazabicyclo[3.2.1]octan-3-yl]-[1,2,4]triazolo[1,5-a]pyridin-2-yl]amino]pyrazol-1-yl]ethanone]",39.9
23,"CN1CCN(C(=O)Cn2cc(Nc3nc4c(N5CC6CCC(C5)N6C(=O)c5ccccc5)cccn4n3)cn2)CC1 [Example 70, 2-[4-[[8-(8-benzoyl-3,8-diazabicyclo[3.2.1]octan-3-yl)-[1,2,4]triazolo[1,5-a]pyridin-2-yl]amino]pyrazol-1-yl]-1-(4-methylpiperazin-1-yl)ethanone]",117
24,"CN1CCN(C(=O)Cn2cc(Nc3nc4c(N5CC6CCC(C5)N6C(=O)N5CC(O)(C(F)(F)F)C5)cccn4n3)cn2)CC1 [Example 141, 2-[4-[[8-[8-[3-hydroxy-3-(trifluoromethyl)azetidine-1-carbonyl]-3,8-diazabicyclo[3.2.1]octan-3-yl]-[1,2,4]triazolo[1,5-a]pyridin-2-yl]amino]pyrazol-1-yl]-1-(4-methylpiperazin-1-yl)ethanone]",11.1
